Data on one compound can be found in patent US7087373B2, “Methods for determining plasma free drug concentration by direct measurement of binding affinity of protease inhibitors to plasma proteins” (priority 2001, dated 2006).

Experiment [1] relates to AAG (human α1-acid glycoprotein). Kind of experiment: Isothermal titration calorimetry (ITC) of PI binding to AAG. The method, then:
Briefly, the isothermal titration calorimetry (ITC) measurements are designed to obtain primarily the enthalpy of each complex formation and their stoichiometries. The heats of each reaction are determined by integration of the peaks observed. After the contribution from the heat of dilution of each injection is subtracted, the heat is plotted against the molar ratio of PIs to AAG. The binding constant (Ka), enthalpy of binding (ΔH^0), and stoichiometry (N) of the formation of complex are determined by fitting the binding isotherm against the binding equation using an independent binding model. Data analysis may be carried out with, for example, MicroCal ORIGN software, usually provided with the instrument.
Binding experiments were run using Isothermal Titration Calorimetry (ITC) to measure bound and unbound protease inhibitors.
Sample preparation: Solutions of AAG and its variants for ITC experiments were made up in 20 mM […] buffer, pH 7.4. All compounds were prepared as stock solution of 20 mM or 25 mM in DMSO and thereafter diluted to desired concentration in the same buffer. For all ITC experiments, the percentage of DMSO is below 1%. […]
The values provided are the average of duplicate experiments. […] The ΔS^0 function was calculated from the standard thermodynamic relation ΔG^0=ΔH^0−TΔS^0.

Experiment [2] relates to HIV. Kind of experiment: Cell-based anti-HIV assay (tetrazolium-based, Pauwels et al.) in the absence of AAG and in the presence of 1 mg/mL AAG. The following applies: change in experimental EC50, absence of AAG vs presence of 1 mg/mL AAG. On the procedure:
The values provided are the average of duplicate experiments. […] The standard free energies (ΔG^0) were obtained from the equation ΔG^0=−RT1nKa, in which the Ka is the binding constant at 37° C. The ΔS^0 function was calculated from the standard thermodynamic relation ΔG^0=ΔH^0−TΔS^0. […] Methods, 1988, 20(4), 309–21.

On to `CC(C)CN(C[C@@H](O)[C@H](Cc1ccccc1)NC(=O)O[C@H]1CCOC1)S(=O)(=O)c1ccc(N)cc1` [APV, amprenavir], for which, in experiment [1] (80 μM PI into 12 μM AAG), the “Ka (binding constant, curve fit)” value is 1.49(±0.20)×10^6 M^−1. In experiment [1] (binding to AAG, 37° C., 20 mM phosphate buffer, pH 7.4, average of duplicate experiments), the Ka is 1.49 ± 0.20 10^6M^−1. The “Fold Inc. EC50” value in experiment [2] is recorded as 23.7.
